{"source": "ChEMBL document CHEMBL1132372", "about": "“The opioid mu agonist/delta antagonist DIPP-NH(2)[Psi] produces a potent analgesic effect, no physical dependence, and less tolerance than morphine in rats” (J Med Chem, 1999)", "key": {"[1]": {"organism": "Mus musculus", "experiment": "Compound was evaluated for its antagonist potency against delta agonist deltorphin I, by MVD assay(mouse vas deferens)."}, "[2]": {"organism": "Mus musculus", "experiment": "Compound was evaluated for its antagonist potency against delta agonist […] by MVD assay(mouse vas deferens)."}}, "data": [{"smiles": "Cc1cc(O)cc(C)c1C[C@H](N)C(=O)N1Cc2ccccc2C[C@H]1C(=O)N[C@@H](Cc1ccccc1)C(=O)N[C@@H](Cc1ccccc1)C(N)=O", "values": [{"measurement": "Ke", "setting": "[1]", "result": 0.26, "unit": "nM"}, {"measurement": "Ke", "setting": "[2]", "result": 0.209, "unit": "nM"}]}]}
